Measured values taken from patent publication US8680102B2, “Pyrrole derivatives, their preparation and their therapeutic application” (Sanofi, priority 2008, dated 2014).

Chains of the proteins cited; added tags and fusions are not shown.
UniProt P47746, whole entry: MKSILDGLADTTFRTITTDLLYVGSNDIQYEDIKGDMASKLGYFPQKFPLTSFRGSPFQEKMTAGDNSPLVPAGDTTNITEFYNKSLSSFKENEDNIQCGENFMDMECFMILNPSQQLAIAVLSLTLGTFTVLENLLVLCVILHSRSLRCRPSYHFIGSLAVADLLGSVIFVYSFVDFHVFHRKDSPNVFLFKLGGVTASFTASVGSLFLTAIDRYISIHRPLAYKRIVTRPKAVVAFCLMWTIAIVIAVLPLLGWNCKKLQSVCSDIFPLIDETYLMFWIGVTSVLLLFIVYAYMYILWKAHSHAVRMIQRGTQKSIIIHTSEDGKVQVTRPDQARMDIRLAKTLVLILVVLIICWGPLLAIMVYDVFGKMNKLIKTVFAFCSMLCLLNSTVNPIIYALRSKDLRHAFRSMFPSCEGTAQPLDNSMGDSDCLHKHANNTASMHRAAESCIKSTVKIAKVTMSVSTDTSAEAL

Columns and labels:
[1] = target: T1, CB1 receptors present at the periphery (Mus musculus, UniProt P47746); assay: blocking of the inhibitory effect of CP55940 on the gastrointestinal transit; format: in vivo; conditions: po route at 10 mg/kg, mice
T1 construct: from tissue; host or cells: whole mouse, in vivo (peripheral / gastrointestinal CB1)
Experimental: A percentage reversion of the effect of CP55940 greater than 50% at 10 mg/kg indicates a significant antagonist power at the level of the CB1 receptors present at the periphery.

[2] = target: CB1 receptors present in the brain (Mus musculus, UniProt P47746); assay: Measurement (3): blocking of the hypothermic effect induced by CP55940; format: in vivo; set-up: from tissue; host or cells: whole animal, in vivo (brain CB1)

Cc1c(C(=O)NN2CCCCC2)nn(-c2ccc(Cl)cc2Cl)c1-c1ccc(Cl)cc1 [rimonabant, reference compound]
% reversion of the effect of CP55940 on the GIT [1]: 100% | % reversion of the hypothermic effect of CP55940 ([2]; iv route at 10 mg/kg): 100% [effective dose 50 | ED50 ([2]; iv route, read-out: effective dose 50 (ED50), reversion of the hypothermic effect of CP55940): 0.3 mg/kg
